Permeability data for macrocyclic peptides

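Lipid, pH, incubation time, direction and concentration are not recorded in the data file. Other peptides of the study may be missing here. Entries at the database's floor value (log10 P of -10) are not listed.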

PAMPA is the parallel artificial membrane permeability assay, which has no cells and reads passive diffusion.
Values are log10 P with P in cm/s, so -5 is more permeable than -7.

structure (SMILES),PAMPA (log10 cm/s)
CC(C)C[C@@H]1NC(=O)[C@H](C)N(C)C(=O)[C@H](Cc2ccccc2)NC(=O)CN(Cc2ccccc2)C(=O)[C@@H]2CCCN2C(=O)C[C@H](Cc2ccccc2)NC1=O,-5.75
CC(C)C[C@@H]1NC(=O)[C@@H](CC(C)C)N(C)C(=O)[C@H](C)N(C)C(=O)[C@H](Cc2ccccc2)NC(=O)CN(Cc2ccccc2)C(=O)[C@H]2CCCN2C1=O,-5.19
CCCN1CC(=O)N[C@@H](CC(C)C)C(=O)N[C@@H](CC(C)C)C(=O)N2CCC[C@H]2C(=O)N[C@H](CC(C)C)C(=O)N[C@@H](Cc2ccccc2)C1=O,-6.08
CC(C)C[C@H]1NC(=O)[C@@H]2CCCN2C(=O)[C@H](CC(C)C)N(C)C(=O)[C@@H](CC(C)C)NC(=O)[C@H](C)N(C)C(=O)[C@@H]2CCCN2C(=O)[C@H](Cc2ccccc2)NC1=O,-6.38
CCCN1CC(=O)N[C@H](CC(C)C)C(=O)N[C@H](CC(C)C)C(=O)N2CCC[C@@H]2C(=O)N(Cc2ccccc2)CC(=O)N[C@@H](Cc2ccccc2)C(=O)N2CCC[C@H]2C1=O,-5.57
CC(C)C[C@@H]1NC(=O)[C@@H](C)N(C)C(=O)[C@H](Cc2ccccc2)NC(=O)CN(Cc2ccccc2)C(=O)[C@H]2CCCN2C(=O)[C@@H](CC(C)C)N(C)C1=O,-5.30
CC(C)C[C@H]1NC(=O)[C@H](C)NC(=O)[C@H](Cc2ccccc2)NC(=O)CN(Cc2ccccc2)C(=O)[C@H]2CCCN2C(=O)CN(Cc2ccccc2)C1=O,-6.01
CC(C)C[C@@H]1NC(=O)[C@@H](C)N(C)C(=O)[C@@H]2CCCN2C(=O)[C@H](Cc2ccccc2)NC(=O)[C@H](CC(C)C)N(C)C(=O)[C@@H]2CCCN2C(=O)[C@@H](CC(C)C)N(C)C1=O,-5.68
CC(C)C[C@@H]1NC(=O)[C@H](C)N(C)C(=O)[C@H]2CCCN2C(=O)[C@H](Cc2ccccc2)NC(=O)[C@@H](CC(C)C)N(C)C(=O)[C@H]2CCCN2C(=O)CN(Cc2ccccc2)C1=O,-5.20
CC(C)C[C@@H]1C(=O)N2CCC[C@H]2C(=O)N(Cc2ccccc2)CC(=O)N[C@@H](Cc2ccccc2)C(=O)N2CCC[C@H]2C(=O)N[C@H](C)C(=O)N[C@H](CC(C)C)C(=O)N1C,-6.63
CC(C)C[C@H]1NC(=O)[C@H](CC(C)C)N(C)C(=O)[C@H](C)NC(=O)[C@@H]2CCCN2C(=O)[C@H](Cc2ccccc2)NC(=O)[C@H](CC(C)C)N(C)C(=O)[C@@H]2CCCN2C1=O,-5.58
CC(C)C[C@@H]1NC(=O)[C@@H](C)NC(=O)[C@H](Cc2ccccc2)NC(=O)CN(Cc2ccccc2)C(=O)[C@H]2CCCN2C(=O)[C@H](CC(C)C)N(C)C1=O,-5.44

Excerpt, the opening 2 entries:

structure (SMILES)	PAMPA (log10 cm/s)
CC(C)C[C@@H]1NC(=O)[C@H](C)N(C)C(=O)[C@H](Cc2ccccc2)NC(=O)CN(Cc2ccccc2)C(=O)[C@@H]2CCCN2C(=O)C[C@H](Cc2ccccc2)NC1=O	-5.75
CC(C)C[C@@H]1NC(=O)[C@@H](CC(C)C)N(C)C(=O)[C@H](C)N(C)C(=O)[C@H](Cc2ccccc2)NC(=O)CN(Cc2ccccc2)C(=O)[C@H]2CCCN2C1=O	-5.19

Data: CycPeptMPDB; original report Townsend et al. 2020, doi:10.26434/chemrxiv.13335941.v1.